What was measured:
hURAT1 = hURAT1 (Homo sapiens, UniProt Q96S37); assay: Test for inhibiting urate reuptake activity via hURAT1 (uric acid transport assay in hURAT1-overexpressed HEK293 cell line); conditions: read-out: IC50 (μM) hURAT, level of uric acid reuptake inhibition; hURAT1-overexpressed HEK293 cells, [14C]-uric acid uptake, 100 μM uric acid
CYP2C9 = CYP2C9 (Homo sapiens, UniProt P11712)

Protein sequences, listed by entry. Tags and fused reporters are not part of them.
UniProt Q96S37, whole entry: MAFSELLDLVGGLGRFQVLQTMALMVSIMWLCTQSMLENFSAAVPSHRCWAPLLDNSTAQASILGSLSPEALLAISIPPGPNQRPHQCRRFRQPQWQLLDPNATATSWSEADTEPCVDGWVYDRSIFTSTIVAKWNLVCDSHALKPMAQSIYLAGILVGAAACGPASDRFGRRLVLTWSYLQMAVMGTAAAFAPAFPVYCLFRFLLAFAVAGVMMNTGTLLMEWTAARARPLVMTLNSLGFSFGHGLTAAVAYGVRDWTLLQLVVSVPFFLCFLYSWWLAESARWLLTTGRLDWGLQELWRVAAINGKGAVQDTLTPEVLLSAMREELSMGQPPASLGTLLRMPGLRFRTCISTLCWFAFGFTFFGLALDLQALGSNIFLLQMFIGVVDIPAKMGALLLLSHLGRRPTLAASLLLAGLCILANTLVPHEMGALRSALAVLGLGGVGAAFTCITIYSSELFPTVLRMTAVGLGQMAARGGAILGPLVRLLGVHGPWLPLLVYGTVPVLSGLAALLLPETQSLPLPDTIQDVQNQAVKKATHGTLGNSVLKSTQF
UniProt P11712, whole entry: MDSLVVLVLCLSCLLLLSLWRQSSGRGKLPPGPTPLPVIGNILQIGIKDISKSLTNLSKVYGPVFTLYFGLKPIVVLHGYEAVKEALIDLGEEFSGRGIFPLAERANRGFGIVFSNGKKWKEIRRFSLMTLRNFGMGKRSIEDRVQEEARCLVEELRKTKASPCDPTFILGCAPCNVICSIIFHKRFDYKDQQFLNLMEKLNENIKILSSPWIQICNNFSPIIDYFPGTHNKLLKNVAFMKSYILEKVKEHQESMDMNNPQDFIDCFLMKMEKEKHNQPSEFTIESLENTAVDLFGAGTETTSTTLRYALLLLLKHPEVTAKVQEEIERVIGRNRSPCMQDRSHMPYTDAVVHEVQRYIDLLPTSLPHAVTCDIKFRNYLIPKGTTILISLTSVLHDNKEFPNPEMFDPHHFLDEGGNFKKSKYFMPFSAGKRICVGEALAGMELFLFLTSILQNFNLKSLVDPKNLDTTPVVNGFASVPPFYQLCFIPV

O=C(c1cc(Br)c(O)c(Br)c1)N1CCOc2ncc(-c3cccc4[nH]ccc34)cc21
IC50 (hURAT1): 0.0048 µM | IC50 (CYP2C9): 10.8 µM
